Source: IntAct's records for PubMed 12150926

B1: Eukaryotic translation initiation factor 4E-binding protein 1 (Homo sapiens), Q13541 (parent)
chain: MSGGSSCSQTPSRAIPATRRVVLGDGVQLPPGDYSTTPGGTLFSTTPGGTRIIYDRKFLMECRNSPVTKTPPRDLPTIPGVTSPSSDEPPMEASQSHLRNSPEDKRAGGEESQFEMDI

Variants of: B1
Conditions: with rptor_human RPTOR
For T37E;T46E;S65E;T70E;S83E, the “effect of a mutation on the interaction” value was “decreasing interaction”. T37A;T46A;S65A;T70A;S83A was tested, and the “effect of a mutation on the interaction” value was “increasing interaction”.
